In patent publication US7659252B2, “Transdermal delivery peptides and method of use thereof” (Novomed Technologies, Inc. (Shanghai), priority 2005, dated 2010):

Key:
Male Wistar rats = experiment: Phage delivery across trimmed abdominal skin, phage titre in tail-vein blood; format: in vivo, rat; details: 10^12 pfu, 1 hour post topical administration
Method: Phage delivery: Male Wistar rats (180 g to 220 g) were housed at a constant temperature (22° C.) and relative humidity (60%) with a fixed 12 hr. light/dark cycle, and free access to food and water. While the animals were anesthetized with Vrethane (5 ml/kg of 20% solution), the hair in an area of approximately 3.0 cm×3.0 cm on the abdomen was carefully trimmed using scissors, with caution not to damage the skin (rats with any visible sign of skin damage were not used). […] One hour after the phage administration blood was withdrawn from the tail vein and immediately assayed for phage titre according to manufacturer's protocol.

[1] = system: dexamethasone-treated rats; experiment: Transdermal delivery of human growth hormone, serum hGH by ELISA; format: in vivo, rat; details: for hGH in the systemic circulation: 500 μg hGH co-administered with peptide (TD-1 100 or 500 μg; AP-1 100 μg)
Method: Growth hormone delivery: To assess whether TD-1 can deliver a different protein drug, a recombinant human growth hormone (hGH, 500 μg) and TD-1 were co-administered at two different doses to the abdominal skin of Wistar rats, which had been treated with dexamethasone (12.5 mg/kg) for two days. In particular, male Wistar rats were given daily subcutaneous injection of dexamethasone (12.5 mg/kg; Sigma). After 2 days of treatment they were randomly assigned to different treatment groups, with 3 to 4 rats for each group. […] After the co-administration, blood was drawn from the rat tail vein at various time points: 0, 2, 5, and 8 hours, and the amount of growth hormone in the serum was assayed using ELISA (Diagnostic Systems Laboratories, Webster, Tex.). The various groups were compared to the saline+hGH group on each time point, using independent samples t-test.

[2] = system: streptozotocin-induced diabetic rats; experiment: Transdermal insulin delivery: serum insulin and blood glucose; format: in vivo, rat; details: for Serum Insulin Mean: 5 hr value minus 0 hr value, 500 μg peptide + 70 μg insulin topical; for transdermal efficiency of insulin after TD-1 pre-treatment (serum insulin): TD-1 5 min, washed off
Method: (§1) Insulin delivery: In particular, male Wistar rats were given intraperitoneal injection of straptozotocin (60 mg/kg; Sigma-Aldrich, St. Louis, […].) to make these rats in diabetic states. Seven to 10 days post injection blood glucose level was measured using One-Touch Ultra Glucometer (LifeScan, Milpitas, Calif.). The straptozocin-induced (SD-induced) diabetic rats with blood glucose level of over 20 mmol/l (normal rats are between 4 and 6 mmol/l) were selected and randomly assigned to different treatment groups, with 6 rats for each group. […] The SLA/PP is a chemical enhancer combination recently identified from high-throughput screening (Karande et al., […], Nature Biotech. 22:192). Moreover, in other transdermal treatment groups, 100 μl saline was given to each rat in that group. For the subcutaneous treatment group, 14 μg of insulin per rat was injected.
Blood was drawn from the rat tail vein at these time points and assayed for blood glucose as described above and serum insulin by radioimmunoassay (Immunotech, Czech).
Blood glucose and serum insulin were measured before and 5 hrs. after the administration as described above.

[3] = Octanol-water partition coefficient; format: physicochemical; details: 25° C., HPLC
Method: Determination of octanol-water partition coefficient: n-Octanol and water were presaturated with each other by vigorous mixing and letting to stand at 25° C. for 24 h. 10 mg of TD-1 was transferred to a 15-ml screw-capped centrifuge tube, and pre-saturated octanol and water (2.5 ml each) were added. The mixture was vigorously shaken for 10 min, let to stand at 25° C. for 12 h, and then centrifuged (400 g, 10 min) to achieve good separation of two phases. TD-1 concentrations in the two phases were determined by HPLC and used to compute log Pow. For HPLC, a 250×4.6 mm reverse C18 analytical column (COSMOSIL) was used with the mobile phase consisting of 30% acetonitrile/O/1% TFA and 70% water/0.1% TFA and a flow rate of 1 ml/min with an injection loop of 20 μl. Detection was at 230 nm.

anesthetized Wistar rats = experiment: ^125I-insulin transdermal delivery, radioactivity in whole blood; format: in vivo, rat; details: co-administered with 4, 8 or 16 μg TD-1
Method: as §1

[4] = DLS measurements of insulin with or without TD-1; format: physicochemical; details: pH 2.0, 3.0 and 7.0
Method: DLS measurements: To determine whether TD-1 mediates skin penetration by altering the molecular form of insulin, dynamic light-scattering studies (DLS) were performed. In particular, insulin (1 mg), with or without TD-1 (2.5 mg), was solubilized in 500 ml of saline in small scintillation glass vials and the pH was adjusted to 2.0 or 3.0 with 1 M HCl and 7.0 with 1 M NaOH. The solutions were transferred to a centrifuge tube and spun for 10 min at 10000 rpm. 40 μl of the supernatant were filtered by ANODISC™ membrane filter with a pore size of 0.02 μm (Whatman International, Maidstone, UK) and taken for DLS measurement using DynaPro™ MS 800 (Wyatt technology Corporation/Protein Solutions, Santa Barbara, Calif.).

[5] = 500 μg TD-1 + 70 μg porcine insulin, topical

**Q.** Which results are given for ACNATLPHQCG [AP-1, reference compound]?
**A.** average titre in blood (Male Wistar rats): no infective phage particles detected; hGH in the systemic circulation [1]: undetetable

**Q.** For ACSASPSKHCG [TD-24], which “Serum Insulin Mean” value [2] is on record?
**A.** 0.7442 ng/mL

**Q.** Which “Serum Insulin Mean” value [2] does the source give for ACSSSASKHCG [TD-3] here?
**A.** 0.4017 ng/mL

**Q.** For ACSSSPAKHCG [TD-6], which “Serum Insulin Mean” value [2] is on record?
**A.** 1.6198 ng/mL

**Q.** With ACSSSPSAHCG [TD-22] as the sequence, how does the “Serum Insulin Mean” value [2] read?
**A.** 0.7939 ng/mL

**Q.** With ACSSSPSDHCG [TD-4] as the sequence, how does the “Serum Insulin Mean” value [2] read?
**A.** 0.7765 ng/mL

**Q.** With ACSSSPSKACG [TD-23] as the sequence, how does the “Serum Insulin Mean” value [2] read?
**A.** 1.0422 ng/mL

**Q.** With ACSSSPSKHCG [TD-1] as the sequence, how does the “octanol/water partition coefficient (log Pow)” value [3] read?
**A.** −3.03

**Q.** What about the “time at which elevated serum insulin was detectable” value [2, 5] of the same sequence?
**A.** 2 h

**Q.** What about the “time of return of serum insulin to basal level” value [2, 5] of the same sequence?
**A.** 11 h

**Q.** What about the “time of serum insulin peak” value [2, 5] of the same sequence?
**A.** 5 h

**Q.** And the “lowering of transdermal efficiency at pH 7.0 compared with the pH 3.0 group” value ([2]; 500 μg TD-1 + 200 μg insulin, 5 hr)?
**A.** about 20%

**Q.** And the “Serum Insulin Mean” value [2]?
**A.** 3.9224 ng/mL

**Q.** What about the “transdermal efficiency of insulin after TD-1 pre-treatment (serum insulin)” value ([2]; no waiting period before insulin) of the same sequence?
**A.** about the same as that observed under the TD-1 and insulin co-administration

**Q.** What about the “transdermal efficiency of insulin after TD-1 pre-treatment (serum insulin)” value ([2]; waiting period 15 minutes or more) of the same sequence?
**A.** dramatically decreased

**Q.** What about the “transdermal efficiency of insulin after TD-1 pre-treatment (serum insulin)” value ([2]; waiting time 5 minutes) of the same sequence?
**A.** significant amount of insulin to reach blood circulation

**Q.** And the “transdermal efficiency of insulin (serum insulin)” value ([2]; pH 2.0, 500 μg TD-1 + 200 μg insulin, 5 hr)?
**A.** 2.95 to 3.84 ng/mL

**Q.** What about the “transdermal efficiency of insulin (serum insulin)” value ([2]; pH 3.0, 500 μg TD-1 + 200 μg insulin, 5 hr) of the same sequence?
**A.** 2.85 to 3.42 ng/mL

**Q.** What about the “transdermal efficiency of insulin (serum insulin)” value ([2]; pH 7.0, 500 μg TD-1 + 200 μg insulin, 5 hr) of the same sequence?
**A.** 2.08 to 2.45 ng/mL

**Q.** What about the “delivery of ^125I-insulin to whole blood” value (anesthetized Wistar rats) of the same sequence?
**A.** effective

**Q.** And the “time at which significant ^125I in whole blood was detectable” value (anesthetized Wistar rats)?
**A.** 2 h

**Q.** What about the “time at which significant amounts of hGH were achieved” value ([1]; 500 μg hGH + 100 or 500 μg TD-1) of the same sequence?
**A.** 2 h

**Q.** What about the “hGH in the systemic circulation” value [1] of the same sequence?
**A.** enabled hGH to reach systemic circulation

**Q.** What about the “hGH delivery, 100 μg TD-1 compared with 500 μg TD-1” value ([1]; 500 μg hGH, 100 μg TD-1) of the same sequence?
**A.** more effective than 500 μg TD-1

**Q.** And the “effect on the apparent molecular weights of insulin” value [4]?
**A.** did not significantly alter

**Q.** With ACSSSSSKHCG [TD-10] as the sequence, how does the “Serum Insulin Mean” value [2] read?
**A.** 3.4505 ng/mL

**Q.** For CSSSPSKHC [TD-2], which “Serum Insulin Mean” value [2] is on record?
**A.** 1.7480 ng/mL
